Experimental data from patent publication US11360096B2, “Complex BRET technique for measuring biological interactions” (DUKE UNIVERSITY, priority 2019, dated 2022).

Assays:
AT1R [1] = target: T1, AT1R (Homo sapiens, UniProt P30556); assay: Split luciferase Gαi-LgBiT:β-arrestin-smBiT association after treatment of AT1R; assay type: cell-based
T1 construct: 3xHA (N); expressed in transfected cells; host or cells: HEK 293T
Procedure: HEK293T cells seeded in 6-well plates were co-transfected with 500 ng of smBiT tagged β-arrestin-2, and either 250 ng of LgBiT tagged receptor or 2000 ng of untagged receptor and varying concentrations of LgBiT Gα protein expression vector (most experiments were conducted between 50-200 ng of Gα plasmid) or 2000 ng of mKO tagged β-arrestin-2 and 500 ng of smBiT tagged V2R using a calcium phosphate protocol. Twenty-four hours post-transfection, cells were plated onto clear bottom, white-walled 96-well plates at 50,000-100,000 cells/well in “BRET media”—clear minimum essential medium (GIBCO) supplemented with 2% FBS, 10 mM HEPES, 1×GLUTAMAX™, and 1× Anti-Anti (GIBCO). […] For luminescence split luciferase studies, plates were read with a BioTek SYNERGY™ Neo2 plate reader set at 37° C. with a 485 nm emission filter. […] For split luciferase luminescence experiments, plates were read both before and after ligand treatment to calculate Δnet change in luminescence and subsequently normalized to vehicle treatment. For complex BRET experiments, plates were read on a Berthold Mithras LB940 using pre-warmed media and instrument at 37° C. using a standard Rluc emissions filter (480 nm) with a custom mKO 542 nm long-pass emission filter (Chroma Technology Co., Bellows Falls, Vt.). The BRET ratio was calculated by dividing the mKO signal by the luciferase signal.

AT1R [2] = target: T1, AT1R; assay: BRET assay of β-arrestin-2-YFP recruitment to AT1R-RlucII; assay type: cell-based
Excerpt: For panel A, n=4 per condition, for panels B and C, n=4-5 per condition, for panels E and F, n=4 per condition. Graphs show mean±s.e.m.

Angiotensin II [AngII]
Gαi:β-arrestin complex formation at AT1R (AT1R [1]): induced Gαi:β-arrestin complex formation
β-arrestin recruitment to AT1R (AT1R [2]): recruits β-arrestin
